# Reported properties for industrial, environmental and drug-like chemicals

From the experimental data distributed with OPERA 2.9.

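OPERA's authors assembled the values from existing databases and did not measure them anew. One number stands for a compound and property, with no spread given. Conditions of the individual experiments are not part of the data. The measured form (salt, isomer or mixture) is not always the one drawn. Some entries may be limits or estimates that an upstream database listed as plain numbers.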

Melting points are in °C.
The boiling point refers to atmospheric pressure (760 mmHg), by the definition of the set.
logP is the log10 of the octanol-water partition coefficient; higher is more lipophilic.
Water solubility is log10 of mol/L, nominally at 25 °C; higher is more soluble.
Vapor pressure is log10 of mmHg; the set covers 15 to 30 °C, mostly 20 to 25 °C.
The unbound fraction in human plasma runs from 0 (all bound) to 1 (all free).

{"smiles": "O=C1CCCCCCCCCCCCCC1", "name": "Cyclopentadecanone", "logP": "5.6", "log solubility (log10 mol/L)": "-5.589", "log VP (log10 mmHg)": "-2.424"}
{"smiles": "NCC[C@H](O)C(=O)N[C@@H]1C[C@H](N)[C@@H](O[C@H]2O[C@H](CN)CC[C@H]2N)[C@H](O)[C@H]1O[C@H]1O[C@H](CO)[C@@H](O)[C@H](N)[C@H]1O", "name": "Arbekacin", "MP (°C)": "178", "log solubility (log10 mol/L)": "-1.13", "fu": "0.92"}
{"smiles": "COCCOCCOCCNC(C)(C)C", "MP (°C)": "-44", "BP (°C)": "257.8", "logP": "0.9", "log VP (log10 mmHg)": "-2.095"}
{"smiles": "CC1=C(C=O)C(C)(C)CC=C1", "name": "Safranal", "MP (°C)": "2.5", "log solubility (log10 mol/L)": "-2.465", "log VP (log10 mmHg)": "-1.112"}
{"smiles": "C/C=C/CCC1CCC([C@H]2CC[C@H](CCC)CC2)CC1", "stereo": "some centres undefined", "MP (°C)": "75.1", "BP (°C)": "365.8", "log VP (log10 mmHg)": "-6.06"}
{"smiles": "O=C(c1ccc(O)cc1)c1cccc(C(=O)c2ccc(O)cc2)c1", "name": "benzene-1,3-diylbis[(4-hydroxyphenyl)methanone]", "MP (°C)": "215.5", "log solubility (log10 mol/L)": "-6.469"}
{"smiles": "C=CC(C)=CCC1OC1(C)C", "stereo": "configuration not stated", "name": "2,2-Dimethyl-3-(3-methylpenta-2,4-dienyl)oxirane", "logP": "2.99", "log solubility (log10 mol/L)": "-2.354", "log VP (log10 mmHg)": "-0.318"}
{"smiles": "C[N+]1(CC(=O)N/N=C/c2ccccc2O)CCOCC1.[Cl-]", "MP (°C)": "187", "logP": "-2.4", "log VP (log10 mmHg)": "-7.727"}
{"smiles": "Cc1cccc(CC(=O)O)c1", "name": "m-Tolylacetic acid", "logP": "1.95", "log VP (log10 mmHg)": "-1.227"}
{"smiles": "CCCCCCCC/C=C\\CCCCCCCCNCCCNCCCN", "name": "(Z)-N-(3-Aminopropyl)-N'-9-octadecenylpropane-1,3-diamine", "MP (°C)": "17", "logP": "-0.3", "log solubility (log10 mol/L)": "-3.718"}
{"smiles": "C=C(C)C(=O)OCCC[Si](OC)(OC)OC", "name": "3-(Trimethoxysilyl)propyl methacrylate", "logP": "2.1", "log VP (log10 mmHg)": "-1.763"}
{"smiles": "CCCCCCCCCCC(CCCCCCCC)COC(=O)[C@@H]1CCC(=O)N1", "stereo": "stereo partly drawn", "name": "2-Octyldodecyl 5-oxo-L-prolinate", "logP": "6.97", "log solubility (log10 mol/L)": "-8.311", "log VP (log10 mmHg)": "-3.803"}
{"smiles": "Cc1nn(-c2ccccc2)c(=O)[c-]1/N=N/c1ccccc1C(=O)[O-].Cc1nn(-c2ccccc2)c(=O)[c-]1/N=N/c1ccccc1C(=O)[O-].[Cr+3].[H+]", "name": "Acid Yellow 121", "logP": "1.098", "log solubility (log10 mol/L)": "-3.61"}
{"smiles": "Brc1cccc(Oc2ccccc2)c1", "name": "PBDE 002", "MP (°C)": "20", "log VP (log10 mmHg)": "-3.016"}
{"smiles": "C=CSCCO", "name": "Ethanol, 2-(ethenylthio)-", "logP": "0.6", "log VP (log10 mmHg)": "-0.539"}
{"smiles": "CC(=O)O[Si](OC(C)=O)(OC(C)(C)C)OC(C)(C)C", "MP (°C)": "-90.08", "log VP (log10 mmHg)": "-1.531"}
{"smiles": "CC(C)CCCC(C)CCO", "stereo": "configuration not stated", "name": "3,7-Dimethyloctan-1-ol", "logP": "3.99", "log solubility (log10 mol/L)": "-3.393", "log VP (log10 mmHg)": "-1.967"}
{"smiles": "Cc1ccc2c(c1)CC[C@H]([C@H]1CO1)O2", "MP (°C)": "-47.3", "logP": "2.35", "log solubility (log10 mol/L)": "-2.479", "log VP (log10 mmHg)": "-2.914"}
{"smiles": "C=CC(C)(CCC=C(C)C)OC(C)OCC", "stereo": "configuration not stated", "name": "1,6-Octadiene, 3-(1-ethoxyethoxy)-3,7-dimethyl-", "log solubility (log10 mol/L)": "-3.976", "log VP (log10 mmHg)": "-1.38"}
{"smiles": "CC(=O)OC/C=C(\\C)C=O", "logP": "0.63", "log VP (log10 mmHg)": "-1.002"}
{"smiles": "CC(=O)NCC(N)=O", "name": "2-Acetamidoacetamide", "MP (°C)": "142", "logP": "-1.83"}
{"smiles": "O=C(O)CCNC(=O)c1ccc(/N=N/c2ccc(O)c(C(=O)O)c2)cc1", "name": "Balsalazide", "logP": "1", "log solubility (log10 mol/L)": "-2.344", "log VP (log10 mmHg)": "-6.545"}
{"smiles": "COC(C)(OC)OC", "name": "1,1,1-Trimethoxyethane", "logP": "-0.335", "log VP (log10 mmHg)": "1.348"}
{"smiles": "CC(C)C1CCC(CO)CC1", "stereo": "configuration not stated", "name": "[4-(Propan-2-yl)cyclohexyl]methanol", "MP (°C)": "-20.07", "logP": "3.48", "log solubility (log10 mol/L)": "-2.864", "log VP (log10 mmHg)": "-1.773"}
{"smiles": "C/C=C/C(=O)C1=C(C)CCCC1(C)C", "name": "(E)-beta-Damascone", "MP (°C)": "9", "logP": "3.68", "log solubility (log10 mol/L)": "-2.996", "log VP (log10 mmHg)": "-1.71"}
{"smiles": "Cc1ccc2c(c1)OCC(=O)CO2", "name": "Methyl benzodioxepinone", "MP (°C)": "37.9", "logP": "1.95", "log VP (log10 mmHg)": "-2.185"}
{"smiles": "CC(=O)OC(CC(C)C)CC(C)C", "name": "2,6-Dimethylheptan-4-yl acetate", "MP (°C)": "-79.5", "log VP (log10 mmHg)": "0.312"}

4 of these entries, quoted again:

{"smiles": "O=C(c1ccc(O)cc1)c1cccc(C(=O)c2ccc(O)cc2)c1", "name": "benzene-1,3-diylbis[(4-hydroxyphenyl)methanone]", "MP (°C)": "215.5", "log solubility (log10 mol/L)": "-6.469"}
{"smiles": "NCC[C@H](O)C(=O)N[C@@H]1C[C@H](N)[C@@H](O[C@H]2O[C@H](CN)CC[C@H]2N)[C@H](O)[C@H]1O[C@H]1O[C@H](CO)[C@@H](O)[C@H](N)[C@H]1O", "name": "Arbekacin", "MP (°C)": "178", "log solubility (log10 mol/L)": "-1.13", "fu": "0.92"}
{"smiles": "COCCOCCOCCNC(C)(C)C", "MP (°C)": "-44", "BP (°C)": "257.8", "logP": "0.9", "log VP (log10 mmHg)": "-2.095"}
{"smiles": "CC(=O)NCC(N)=O", "name": "2-Acetamidoacetamide", "MP (°C)": "142", "logP": "-1.83"}